This experiment in a line: membrane potential modulation in parental HEK293, confirmation, counter-screen for TRPC6 inhibitor project, cell-based (AID 2780).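 On membrane potential signal change: plate controls were buffer EC0 wells for no effect and acetylcholine ECmax wells for full effect.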 To be noted: parental HEK293 membrane potential dye fluorescence; at 10 µM. A general note: The purpose of a counterscreen is to sort out artefacts and off-target activity.

These results are taken from PubChem BioAssay AID2780 (Johns Hopkins Ion Channel Center, 2010).

Only a part is listed here, and it is no random draw. Activity calls are given as the source filed them.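 How the source made its calls: active means membrane potential signal shifting up or down by more than 3 SD of buffer-only wells, on both duplicate plates; inactive means the rest.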

In the case of `O=C(OC1CN2CCC1CC2)C1c2ccccc2Oc2ccccc21` (configuration not stated), the membrane potential signal change is active: 6.87%.
Turning to `CCC(CO)(C(=O)OC1CN2CCC1CC2)c1ccccc1` (configuration not stated), the result was inactive.
